Results as given in patent US20230277591A1, “USE OF FLT3 CAR-T CELLS AND FLT3 INHIBITORS TO TREAT ACUTE MYELOID LEUKEMIA” (JULIUS-MAXIMILIANS-UNIVERSITÄT WÜRZBURG, priority 2017, published 2023).

Columns and labels:
[1] = tested on: JeKo-1 mantle cell lymphoma; experiment: Flow cytometric analysis of FLT3 expression after FLT3 inhibitor treatment, JeKo-1; type: cell-based, human; conditions: JeKo-1, wild-type FLT3
Method: (§1) Cell surface expression of FLT3 (CD135) was analyzed using a conjugated mouse-anti-human-FLT3 mAb (clone 4G8, BD Pharmagin, BD Biosciences, Germany) and mouse IgG1 isotype control (BD Pharmagin). In brief, 1×10^6 cells were washed, resuspended in 100 µL PBS/0.5% fetal calf serum and stained with 5 µL of anti-FLT3 mAb or isotype for 30 minutes at 4° C.

MOLM-13 AML cells [2] = experiment: MOLM-13 xenograft model of AML in NSG mice; type: in vivo, mouse; conditions: quizartinib 1 mg/kg i.p., after 5 doses
Method: All experiments were approved by the Institutional Animal Care and Use Committees of the participating institutions. NOD.Cg-Prkdc^scid Il2rg^tm1Wjl/SzJ (NSG) mice (female, 6-8 week old) were purchased from Charles River or bred in-house. Mice were inoculated with 1×10^6 ffluc_GFP^+ MOLM-13 AML cells by tail vein injection on day 0, and received a single dose of 5×10^6 T cells (in 200 µL of PBS/0.5% FCS) by tail vein injection on day 7. Crenolanib [15 mg/kg; 200 µL of 30% glycerol formal (Sigma Aldrich, Munich, Germany)] was administered intraperitoneally (i.p.) Monday-Friday for 3 consecutive weeks. AML progression/regression was assessed by serial bioluminescence imaging following i.p. administration of D-luciferin substrate (0.3 mg/g body weight) (Biosynth, Staad, Switzerland) using an IVIS Lumina imaging system (Perkin Elmer, Waltham, Massachusetts). Data was analyzed using Living Image software (Perkin Elmer).
All experiments were approved by the Institutional Animal Care and Use Committees of the participating institutions. […] AML progression/regression was assessed by serial bioluminescence imaging following i.p. administration of D-luciferin substrate (0.3 mg/g body weight) (Biosynth, Staad, Switzerland) using an IVIS Lumina imaging system (Perkin Elmer, Waltham, Massachusetts). Data was analyzed using Living Image software (Perkin Elmer).

MOLM-13 AML cells [3] = experiment: Flow cytometric analysis of surface expression (FLT3, CD33, CD123) after FLT3 inhibitor treatment, MOLM-13; type: cell-based, human
Method: as §1
A complete medium change was performed every 7 days, MOLM-13 cells adjusted to 1×10^6/mL medium and 2 mL of this cell suspension plated per well in […] (Costar, Corning, NJ). After 2-3 weeks of culture with 10 nM midostaurine, MOLM-13 cells were exposed to exponentially increasing concentration of midostaurine for next 8-10 weeks to reach 50 nM midostaurin.

THP-1 AML cells = experiment: Flow cytometric analysis of FLT3 expression after FLT3 inhibitor treatment, THP-1; type: cell-based, human; conditions: THP-1, wild-type FLT3
Method: as §1

[4] = tested on: K562 erythro-myeloid leukemia; experiment: Flow cytometric analysis of FLT3 expression after FLT3 inhibitor treatment, K562; type: cell-based, human; conditions: K562, wild-type FLT3
Method: as §1

MV4;11 AML cells = experiment: Flow cytometric analysis of surface expression after FLT3 inhibitor treatment, MV4;11; type: cell-based, human
Method: as §1

## CC(C)(C)c1cc(NC(=O)Nc2ccc(-c3cn4c(n3)sc3cc(OCCN5CCOCC5)ccc34)cc2)no1 [quizartinib]
[1]
  increase in FLT3 expression upon exposure: did not occur
MOLM-13 AML cells [2]
  FLT3 expression on MOLM-13 cells recovered from bone marrow: increased FLT3 expression
MOLM-13 AML cells [3]; 10 nM midostaurin 2-3 weeks, 10 nM crenolanib 5 days, 1 nM quizartinib 5 days, p < 0.05
  FLT3 surface protein (MFI) compared to MOLM-13native: significantly higher levels
MOLM-13 AML cells [3]; MOLM-13 after withdrawal
  FLT3 expression upon re-exposure to the drug: increased again
MOLM-13 AML cells [3]; inhibitor-treated vs native
  CD33 expression on MOLM-13: not affected
  CD123 expression on MOLM-13: not affected
THP-1 AML cells
  increase in FLT3 expression upon exposure: did not occur
[4]
  increase in FLT3 expression upon exposure: did not occur
MV4;11 AML cells; MV4;11 (FLT3-ITD+/+)
  FLT3 expression upon exposure: increase
MV4;11 AML cells; inhibitor-treated
  CD33 expression on MV4;11: not affected
  CD123 expression on MV4;11: not affected
